## AlphaSeq binding of Ab-14 heavy chain variants to a spike HR2 peptide

Values reported by Engelhart et al. 2022, doi:10.1038/s41597-022-01779-4 (FLAb copy).

Binding partner: SARS-CoV-2 spike HR2 peptide, sequence PDVDLGDISGINAS.

Parent scFv Ab-14: VH joined to VL by a 15-residue (Gly4Ser)3 linker. Changes lie in the heavy chain CDRs alone.
VH: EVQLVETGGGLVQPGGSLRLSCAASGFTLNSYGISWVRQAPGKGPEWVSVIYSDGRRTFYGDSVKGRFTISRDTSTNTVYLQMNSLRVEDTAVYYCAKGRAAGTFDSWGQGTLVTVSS
VL: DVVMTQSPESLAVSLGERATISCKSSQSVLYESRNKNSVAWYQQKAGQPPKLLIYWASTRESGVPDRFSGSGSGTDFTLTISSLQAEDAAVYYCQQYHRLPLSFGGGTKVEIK

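Phage display of a naive human antibody library on the peptide gave the parent. In library AAYL49, one, two or three CDR residues were substituted; doubles and triples were drawn at random. In AlphaSeq, yeast of one mating type display the scFv and yeast of the other type display the target. The frequency of each diploid, read from paired DNA barcodes, reflects how well the two displayed proteins bind. Each replicate has its own calibration line, from reference interactions of the BCL2 family. There are three technical replicates.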

Changes read parent residue, position, new residue, counted from the first residue of the VH shown. This list gathers variants with a substitution at S35 (VH, numbered from residue 1). The Kd shown is the geometric mean over detected replicates; a lower Kd is a better binder. A pair that was not seen in any replicate is written "not detected"; this usually means weak binding, but a binder can also be missed.

changes	apparent Kd	replicates with signal
S35E+I51P+D62L	not detected	0 of 3
I34Q+S35Q+Y52I	not detected	0 of 3
S35N+S53F+R56S	not detected	0 of 3
S35V+R100K+A102G	not detected	0 of 3
F27S+S35Y+Y52T	63 µM	1 of 3
S35G+Y60K+T104L	not detected	0 of 3
S35T+D62A+S107R	not detected	0 of 3
S35C+R56T+A101P	2.1 µM	1 of 3
S35A+T58V+Y60A	840 nM	1 of 3
S35R+I51L+A101Q	1.6 mM	2 of 3
S35L+K65R	not detected	0 of 3
G26S+S35Q+G61H	21 µM	3 of 3
G26N+F27P+S35I	not detected	0 of 3
S31M+S35E+D106W	40 µM	1 of 3
S35M+V50N	490 µM	1 of 3
S35E+I51L+S107G	not detected	0 of 3
S35D+F59Y	not detected	0 of 3
G33M+S35P+G99D	20 µM	2 of 3
S35T+V50C	5.0 µM	1 of 3
N30Y+S35M+R100N	not detected	0 of 3
S35G+G55E+G103H	not detected	0 of 3
S35K+G55E+A102G	not detected	0 of 3
G33A+S35H+G55F	not detected	0 of 3
S35N+F59K+A101N	not detected	0 of 3
S35L	33 µM	1 of 3
S35A+Y52T	680 nM	1 of 3
S35K+V50F+A101D	not detected	0 of 3
T28P+S35V+G99P	48 µM	2 of 3
L29K+S35H+D54V	not detected	0 of 3
S35N+V50H+F59A	not detected	0 of 3
S35G+R57C+V64K	not detected	0 of 3
Y32M+S35G+I51M	86 µM	2 of 3
T28N+S35K+V64A	93 nM	1 of 3
S35R+R57E+G99W	28 µM	2 of 3
S35V+D54I+G61Q	not detected	0 of 3
T28E+S35M+S107K	not detected	0 of 3
T28P+S35R+A102W	16 µM	3 of 3
S31T+S35K+F105R	340 nM	1 of 3
S35A	28 µM	1 of 3
S35K+G99Q	960 nM	1 of 3
S35V+R56V	not detected	0 of 3
S35M+D54F+F59Y	2.3 µM	1 of 3
S35G+F59P	1.6 µM	1 of 3
S35F+G55P+D106P	68 µM	1 of 3
N30H+S31D+S35E	1.2 µM	1 of 3
T28I+S35H+R100A	18 nM	3 of 3
I34S+S35L	not detected	0 of 3
S35G+R56Q+S107K	not detected	0 of 3
S35A+Y52I+R56A	not detected	0 of 3
S31Q+S35N+A102P	58 nM	2 of 3
S35D+D54Y	not detected	0 of 3
I34A+S35L+V64L	77 µM	2 of 3
G33L+S35E+R100A	20 µM	3 of 3
S35C	not detected	0 of 3
F27Q+S35Y+A101G	not detected	0 of 3
F27N+S35M+D54S	not detected	0 of 3
I34D+S35K+T58H	34 µM	2 of 3
S35K+V64M	not detected	0 of 3
S35F+Y52N+G103H	58 µM	2 of 3
S35D+D54Y+S63L	980 nM	1 of 3
S35M+A102V+T104C	not detected	0 of 3
S35E+D54R+G99S	not detected	0 of 3
T28E+S35P+Y60V	not detected	0 of 3
F27S+S35R+T104F	8.3 µM	2 of 3
S35K+S53I+D62A	not detected	0 of 3
S31Q+S35M+D54F	130 µM	1 of 3
S31P+S35P+T104E	34 µM	1 of 3
S35V+V50W+S63V	not detected	0 of 3
G33H+S35T+V50W	not detected	0 of 3
S35F+D54F+G103C	not detected	0 of 3
S35Q+A102H+G103N	not detected	0 of 3
S35Y+G55H+S63Y	not detected	0 of 3
S35M+V50Y+D106G	not detected	0 of 3
S35Y	36 µM	3 of 3
Y32R+S35N+F59S	42 µM	2 of 3
S35W+R56I+A101G	not detected	0 of 3
F27Y+G33Q+S35Y	61 µM	1 of 3
F27V+T28D+S35H	9.2 nM	3 of 3
I34M+S35Q+V64C	not detected	0 of 3

The 6 strongest on average among those seen in every replicate, once more:

{"changes": "F27V+T28D+S35H", "apparent Kd": "9.2 nM", "replicates with signal": "3 of 3"}
{"changes": "T28I+S35H+R100A", "apparent Kd": "18 nM", "replicates with signal": "3 of 3"}
{"changes": "T28P+S35R+A102W", "apparent Kd": "16 µM", "replicates with signal": "3 of 3"}
{"changes": "G33L+S35E+R100A", "apparent Kd": "20 µM", "replicates with signal": "3 of 3"}
{"changes": "G26S+S35Q+G61H", "apparent Kd": "21 µM", "replicates with signal": "3 of 3"}
{"changes": "S35Y", "apparent Kd": "36 µM", "replicates with signal": "3 of 3"}

As a blank, each scFv also met three strains without target: over library AAYL49, 15% of these pairings were detected, typically at 11 µM and seldom below 680 nM. Parent in this assay: reference entry 4.4 nM, copy in this library 13 µM (one replicate of three).